These results are taken from ChEMBL document CHEMBL4007424, “Design and Synthesis of Enantiomerically Pure Decahydroquinoxalines as Potent and Selective κ-Opioid Receptor Agonists with Anti-Inflammatory Activity in Vivo” (J Med Chem, 2017).

By UniProt entry, the sequences of proteins in these tests, tags left out. Where a name states a change or a piece, a line headed by the entry shows the natural chain unless it says otherwise.
UniProt P41144: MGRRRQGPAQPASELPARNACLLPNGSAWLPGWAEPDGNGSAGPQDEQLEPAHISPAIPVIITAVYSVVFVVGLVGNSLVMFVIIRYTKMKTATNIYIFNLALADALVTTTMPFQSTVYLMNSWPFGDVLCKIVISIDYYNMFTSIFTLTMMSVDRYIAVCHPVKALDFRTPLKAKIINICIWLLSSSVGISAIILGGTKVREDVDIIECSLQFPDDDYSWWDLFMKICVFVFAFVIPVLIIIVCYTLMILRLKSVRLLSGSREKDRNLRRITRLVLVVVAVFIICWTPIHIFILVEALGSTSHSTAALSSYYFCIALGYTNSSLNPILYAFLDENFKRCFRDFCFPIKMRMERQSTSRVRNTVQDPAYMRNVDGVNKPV
UniProt P97266, whole entry, looked up: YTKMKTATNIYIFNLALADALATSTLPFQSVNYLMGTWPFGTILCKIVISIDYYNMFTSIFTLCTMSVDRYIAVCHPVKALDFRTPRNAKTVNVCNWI
UniProt P41145: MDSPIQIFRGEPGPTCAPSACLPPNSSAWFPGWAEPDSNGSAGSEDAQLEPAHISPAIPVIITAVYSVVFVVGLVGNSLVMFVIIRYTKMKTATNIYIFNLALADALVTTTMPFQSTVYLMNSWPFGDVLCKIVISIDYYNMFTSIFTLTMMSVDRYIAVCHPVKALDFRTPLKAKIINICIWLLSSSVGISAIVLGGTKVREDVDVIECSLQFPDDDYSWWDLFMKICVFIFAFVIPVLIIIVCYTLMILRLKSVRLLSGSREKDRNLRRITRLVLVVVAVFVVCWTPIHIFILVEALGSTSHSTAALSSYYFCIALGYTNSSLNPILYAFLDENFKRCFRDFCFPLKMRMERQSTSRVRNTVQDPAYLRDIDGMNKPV

For experiment [1], the target named is Kappa-type opioid receptor (Cavia porcellus, UniProt P41144). Put plainly: Displacement of [3H]U-69,593 from kappa-type opioid receptor in guinea pig brain membranes after 120 mins by solid scintillation counting. For orientation: Displacement assays read how much labelled ligand stays bound in the presence of the test substance.
In another experiment the target is Mu-type opioid receptor (Cavia porcellus, UniProt P97266). As to the kind of experiment: Displacement of [3H]DAMGO from mu-type opioid receptor in guinea pig brain membranes after 120 mins by solid scintillation counting.
The target in experiment [2] is Kappa-type opioid receptor (Homo sapiens, UniProt P41145). Put plainly: Agonist activity at recombinant human kappa-type opioid receptor expressed in HEK293 cells after 30 mins by [35S]GTPgammaS binding assay. In general terms: GTPγS resists hydrolysis and so accumulates on activated G proteins.

With `O=C(Cc1ccc(Cl)c(Cl)c1)N1CCN[C@H]2CCC[C@H](N3CCCC3)[C@H]21`, the Ki turned out to be 0.35 nM in experiment [1] and 217 nM at Mu-type opioid receptor. Moreover, the EC50 in experiment [2] was found to be 3.7 nM.

Usually Ki stands for the equilibrium dissociation constant of an inhibitor or competing ligand from its target. A low value points to tighter binding. As usually defined, the EC50 is the midpoint of the concentration-response curve.
